Laboratory results reported in article PMC3938055.

Experiments:
[1] = biological target: EGFP-CENP-S (human) (UniProt Q8N2Z9); test: FRET or BRET; acceptor photobleaching FRET at centromeres in living cells; EGFP donor, mCherry acceptor bleached in a 4-10 µm^2 region; E_FRET against EVAR of an unbleached region, Mann-Whitney rank-sum test
[2] = biological target: CENP-S-EGFP (human) (UniProt Q8N2Z9); test: as above

E FRET [1]: 2.88 | ΔE (E FRET – EVAR) [1]: 4.24 | E FRET [2]: 2.08 | ΔE (E FRET – EVAR) [2]: 3.65
Substance: histone H3.1-mCherry (from UniProt P68431 1-136) (natural protein; other documents disagree on this pair)
